# Reference: patent publication US20110281852A1 (priority 2010, published 2011)
# Tested on: RN46A cells
# Test: MTT assay, viability of RN46A cells
# Conditions: evodiamine 2 and 4 μM
substance,measurement,value
evodiamine,effect on cell viabilities,did not appear to decrease cell viabilities significantly
